Test results published in article PMC12406203 (Journal of Medicinal Chemistry, 2025).

Sequences of proteins named here, by UniProt entry; tags and fusion partners are left off. Residues count along the entry.
UniProt P06276, 29-602: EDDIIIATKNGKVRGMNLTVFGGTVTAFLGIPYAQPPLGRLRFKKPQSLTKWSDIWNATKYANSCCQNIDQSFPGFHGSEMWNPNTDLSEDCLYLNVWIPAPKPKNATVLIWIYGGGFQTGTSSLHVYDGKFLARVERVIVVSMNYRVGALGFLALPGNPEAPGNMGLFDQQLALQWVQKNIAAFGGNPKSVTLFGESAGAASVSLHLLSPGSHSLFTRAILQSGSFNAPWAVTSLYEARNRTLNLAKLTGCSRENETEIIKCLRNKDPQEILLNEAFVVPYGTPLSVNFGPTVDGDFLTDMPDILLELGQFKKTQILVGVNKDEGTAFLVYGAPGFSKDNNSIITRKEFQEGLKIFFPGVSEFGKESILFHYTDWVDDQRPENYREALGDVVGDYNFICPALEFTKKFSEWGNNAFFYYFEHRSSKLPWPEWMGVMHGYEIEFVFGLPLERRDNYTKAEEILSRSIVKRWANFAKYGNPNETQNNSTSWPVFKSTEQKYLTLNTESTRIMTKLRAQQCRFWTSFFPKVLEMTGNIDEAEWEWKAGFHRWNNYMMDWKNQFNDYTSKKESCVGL

Target: hBChE (Homo sapiens, UniProt P06276)
Conditions: residual activity at 100 μM; mean ± SD, one experiment in triplicate

CC(C)Cn1ncc2cc(Oc3ccc(F)cc3F)c(C(=O)NCCN(C)C)cc21 [Compound 72, 5-(2,4-Difluorophenoxy)-N-(2-(dimethylamino)ethyl)-1-isobutyl-1H-indazole-6-carboxamide, reference compound]
hBChE RA at 100 μM: 9%
